Test results published in US7435438B1, “Disinfectant and method of use” (Pure BioScience, priority 2003, dated 2008).
Read-outs that look alike come from different tables or passages of the source.

Legend:
[1] = tested on: Salmonella cholerasuis strain ATCC 10708
[2] = tested on: Staphylococcus aureus strain ATCC 6538; conditions: between 15 seconds and 30 minutes
[3] = tested on: pseudomonas aeruginosa strain ATCC 15442; conditions: between 15 seconds and 30 minutes

CCO [20% ethanol, ethanol]
disinfection (in words) ([1]; after 30 minutes of contact time): Near complete disinfection | disinfection (in words) ([1]; all time periods up to 30 minutes): slow, but complete disinfection | log10 reduction ([1]; contact time 1 minute, inoculum approx. 1.0×10^6 CFU/mL): ~1.0 log10 | reduction / effectiveness (in words) [2]: No significant reduction | reduction (in words) [3]: no significant reduction

O=C(O)CC(O)(CC(=O)O)C(=O)O [citric acid]
reduction / effectiveness (in words) [2]: Neither citric acid nor copper:citric acid was effective | reduction (in words) [3]: no significant reduction
